Columns and labels:
[1] = species on record: Homo sapiens; test: (§1) Selectivity ratio of Ki(app) for recombinant human full-length N-terminal His6-tagged p110delta/human full-length p85alpha expressed in baculovirus infected Sf21 insect cells to Ki(app) for full-length human P110alpha (1 to 1068 residues)/N-terminal GST-fused p85alpha (1 to 724 residues) expressed in baculovirus expression system
[2] = species on record: Homo sapiens; test: (§2) Selectivity ratio of Ki(app) for p110beta/85alpha (unknown origin) to Ki(app) for full-length human P110alpha (1 to 1068 residues)/N-terminal GST-fused p85alpha (1 to 724 residues) expressed in baculovirus expression system
[3] = species on record: Homo sapiens; test: as §2, with “recombinant human GST-tagged mTOR catalytic domain (1360 to 2549 residues) expressed in baculovirus expression system” for “p110beta/85alpha (unknown origin)”
[4] = species on record: Homo sapiens; test: as §1, with “recombinant full-length” for “recombinant”, “human” for “human full-length”, “p110gamma” for “p110delta/human full-length p85alpha”

| SMILES | Ratio Ki(app) [2] | Ratio Ki(app) [3] | Ratio Ki(app) [1] | Ratio Ki(app) [4] |
| --- | --- | --- | --- | --- |
| CS(=O)(=O)N1CCN(Cc2cc3c(N4CCOCC4)nc(-c4cnc(N)nc4)c(Cl)n3n2)CC1 | 33.4 | 2580 | 3.9 | 7.8 |
| CS(=O)(=O)N1CCN(Cc2nc3c(N4CCOCC4)nc(-c4cnc(N)nc4)c(Cl)n3n2)CC1 | 51.8 | 1480 | 0.6 | 7.7 |
| CS(=O)(=O)N1CCN(Cc2cn3nc(-c4cnc(N)nc4)nc(N4CCOCC4)c3n2)CC1 | 255 | 1210 | 11.8 | 26.7 |

Continued, in another order:

| Ratio Ki(app) [2] | Ratio Ki(app) [3] | SMILES | Ratio Ki(app) [1] | Ratio Ki(app) [4] |
| --- | --- | --- | --- | --- |
| 49.7 | 1720 | CS(=O)(=O)N1CCN(Cc2cc3c(N4CCOCC4)nc(-c4cnc(N)nc4)cn3n2)CC1 | 7.2 | 49.6 |
| 155 | 1260 | CS(=O)(=O)N1CCN(Cc2nc3c(N4CCOCC4)nc(-c4cnc(N)nc4)cn3n2)CC1 | 6.3 | 20.7 |

Reference: ChEMBL document CHEMBL4177600, “Identification of novel PI3K inhibitors through a scaffold hopping strategy” (Bioorg Med Chem Lett, 2017)
